Assay results: patent US6413537B1, “Nystatin formulation having reduced toxicity” (Wisconsin Alumni Research Foundation, priority 2000, dated 2002)

Test system: erythrocytes (red blood cells)
Conditions: no nystatin, FIG. 1

With sodium deoxycholate [NADC] the “concentration of surfactant alone causing 50% hemolysis” value was “about 200 μg/mL”.
